Patent US20260207641A1, “COMBINATION THERAPY FOR CANCER USING ROS-ACTIVATED PRODRUGS AND ROS-AMPLIFYING THERAPEUTICS” (UWM Research Foundation, Inc., priority 2023, published 2026)

Tested on: MDA-MB-468 cells
Experiment: Cytotoxicity dose response (CellTiter-Glo, 48 h)
Type: cell-based, human

`O=c1c(O)c(-c2ccc(O)c(O)c2)oc2cc(O)cc(O)c12` [Quercetin] was tested, and the “SI (Selectivity Index)” value was 1 and the “SI of Prodrug Combined with Maximum Safety Dose of Pro-oxidant” value was 3.
